Experimental data published in patent US8435576B2, “Use of cocoa polyphenols for treating a prostate hyperplasia, a specific cocoa extract and applications” (Barry Callebaut AG, priority 2005, dated 2013).

Assay: Body weight during 14-day oral treatment before heat stroke
Type: in vivo, Wistar rats
Experimental: Eight male rats of Wistar/Han IGS strain (Charles River Laboratories, 69-St-Germain sur l'Arbresle—France) weighing 300 to 320 g are used. On receipt, the rats are housed, four to a cage, in 48×27×20 cm polycarbonate cages (U.A.R., 91-Epinay-Sur-Orge, France) in a controlled environment (50±5% humidity; temperature 22±1° C.; lighting from 20:00 h to 08:00 h, i.e. an inverted lightness/darkness cycle: 12 h/12 h).
The rats are weighed each day for the fourteen days of the treatment in order to determine their body weight change.

Compound: Cc1c(C)c2c(c(C)c1O)CC[C@@](C)(CCC[C@H](C)CCC[C@H](C)CCCC(C)C)O2 [Vitamin E, α-tocopherol]
- Body weight (Day 9): 344.3 ± 15.6 g
- Body weight (Day 10): 348.7 ± 17.8 g
- Body weight (Day 13): 357.6 ± 19.4 g
- Body weight (Day 14): 361.0 ± 18.4 g
